The experiment addresses GluN1/GluN2B-F114AzF receptors (Rattus norvegicus (GluN1-1a); Mus musculus (GluN2B), UniProt P35439+Q01097). The experiment is described as follows: Ifenprodil and Zn2+ inhibition dose-response, TEVC in Xenopus laevis oocytes. In kind it is cell-based. The settings on record: F114AzF mutant. The procedure:
Oocytes were prepared and injected as described previously. Recombinant NMDARs were expressed in Xenopus laevis oocytes after nuclear injection of 36 nl of a mixture cDNAs encoding various GluN1 and GluN2 subunits (ratio 1:1, 10 ng/μl for GluN2A and 30 ng/μl for GluN2B). For Uaa incorporation, oocytes were co-injected with a 36 nl mixture of cDNAs containing GluN1, GluN2, Yam, and aaRS as follows, unless otherwise indicated in the text: GluN1-wt (60 ng/μl), GluN2A-F115AzF (60 ng/μl), Yam (5 ng/μl), AzF-RS (2.5 ng/μl); or, GluN1-wt (80 ng/μl), GluN2B-F114AzF (80 ng/μl), Yam (10 ng/μl), AzF-RS (5 ng/μl). […]
For all experiments, the standard external solutions contained: 100 mM NaCl, […] BaCl2, and 5 mM HEPES, pH adjusted to 7.3 with KOH. […] Currents were recorded and measured at a holding potential of −60 mV at room temperature.
The measurements at 30 μM were corrected by multiply with a correcting value to remove the pore blocking effect at −60 mV[49]. […] Spermine potentiation was analyzed as described earlier. […] Spermine sensitivity was assessed at pH 6.5 in order to maximize the spermine-induced potentiation. […] Each τon was then normalized to the mean τon of wt receptors measured the same day. […]

Protein sequences, listed by entry. Tags and fused reporters are not part of them. Residues count along the entry.
UniProt Q01097, 27-1482: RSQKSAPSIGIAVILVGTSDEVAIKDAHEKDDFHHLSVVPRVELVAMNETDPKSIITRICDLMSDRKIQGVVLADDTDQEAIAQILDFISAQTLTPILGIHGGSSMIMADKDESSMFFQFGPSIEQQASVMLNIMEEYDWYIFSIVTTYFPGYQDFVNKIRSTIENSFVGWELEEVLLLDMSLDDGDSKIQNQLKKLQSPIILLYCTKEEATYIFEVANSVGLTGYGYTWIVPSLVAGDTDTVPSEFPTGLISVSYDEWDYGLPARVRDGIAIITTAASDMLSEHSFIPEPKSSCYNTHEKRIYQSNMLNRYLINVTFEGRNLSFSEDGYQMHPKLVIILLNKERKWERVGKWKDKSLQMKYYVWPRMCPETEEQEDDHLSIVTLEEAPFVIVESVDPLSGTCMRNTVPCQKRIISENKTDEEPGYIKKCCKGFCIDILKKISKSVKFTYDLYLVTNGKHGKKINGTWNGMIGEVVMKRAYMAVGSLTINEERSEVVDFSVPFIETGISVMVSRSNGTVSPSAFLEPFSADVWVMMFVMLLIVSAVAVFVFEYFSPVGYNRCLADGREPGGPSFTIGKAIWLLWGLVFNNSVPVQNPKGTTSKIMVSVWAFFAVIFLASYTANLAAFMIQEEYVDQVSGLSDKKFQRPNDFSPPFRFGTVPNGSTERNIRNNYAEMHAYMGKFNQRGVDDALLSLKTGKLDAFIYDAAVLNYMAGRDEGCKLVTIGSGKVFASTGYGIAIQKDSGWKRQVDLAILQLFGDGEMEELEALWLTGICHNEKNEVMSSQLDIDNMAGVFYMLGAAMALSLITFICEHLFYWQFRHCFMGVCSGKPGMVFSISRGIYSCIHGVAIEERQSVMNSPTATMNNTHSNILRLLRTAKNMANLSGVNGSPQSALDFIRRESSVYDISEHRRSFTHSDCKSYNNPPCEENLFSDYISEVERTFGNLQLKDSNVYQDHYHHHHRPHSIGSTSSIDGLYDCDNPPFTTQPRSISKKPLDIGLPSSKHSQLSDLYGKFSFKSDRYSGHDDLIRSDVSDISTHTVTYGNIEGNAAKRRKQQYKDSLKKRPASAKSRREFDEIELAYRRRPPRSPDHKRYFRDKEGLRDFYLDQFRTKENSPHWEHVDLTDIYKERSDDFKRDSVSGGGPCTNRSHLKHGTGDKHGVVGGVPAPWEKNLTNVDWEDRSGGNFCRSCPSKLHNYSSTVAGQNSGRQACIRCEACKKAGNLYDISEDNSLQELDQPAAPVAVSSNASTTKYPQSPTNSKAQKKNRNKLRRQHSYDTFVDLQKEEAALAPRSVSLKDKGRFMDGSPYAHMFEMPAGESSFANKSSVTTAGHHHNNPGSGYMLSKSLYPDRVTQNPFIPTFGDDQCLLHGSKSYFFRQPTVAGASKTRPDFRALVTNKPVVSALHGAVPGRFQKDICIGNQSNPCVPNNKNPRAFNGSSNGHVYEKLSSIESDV

With `CC(C(O)c1ccc(O)cc1)N1CCC(Cc2ccccc2)CC1` (centres unmarked) [ifenprodil], the “Ifenprodil Hill coefficient nH” value (after UV) turned out to be 0.69 and the “Ifenprodil Hill coefficient nH” value (before UV) was determined as 1.04.

The values above are taken from PMC5054432 (Scientific Reports, 2016).
